Reference: PubChem BioAssay AID1531 (NMMLSC, 2009)
This is a selection; strong and weak results do not stand in their true shares. Some results for these compounds are left out of this collection, so the calls shown say nothing about other tests. Active and inactive are the calls of the source. No stated cut-off is given here; in the data, active means binding response below about 67% or above about 130%; inconclusive means no clear call, values can overlap the other calls; inactive means in between.

molecular target: Mitogen-activated protein kinase kinase kinase 2 (Homo sapiens) (UniProt Q9Y2U5); assay: modulators of MEK5 binding to wildtype MEKK2, primary screen, biochemical, multiplex bead flow cytometry, Alexa488-MEK5 (AID 1531); details: Alexa488-MEK5 binding to MEKK2 WT, at 10 µM, actives lie on both sides

SMILES | binding response (% of control)
COc1cc(C(=O)NCC2(N(C)C)CCCCC2)c([N+](=O)[O-])cc1OC | inactive: 92%
CN(C)C1(CNC(=O)c2ccc(Br)cc2)CCCCC1 | inactive: 104%
O=C(NCC1(N2CCCCC2)CCCCC1)c1cccc(Cl)c1 | inactive: 99%
COc1cccc(C(=O)NCC2(N3CCCCC3)CCCCC2)c1 | inactive: 103%
COc1ccc(Cl)cc1C(=O)NCC1(N(C)C)CCCCC1 | inactive: 111%
O=C(OC1CN2CCC1CC2)C(CO)(c1ccccc1)c1ccccc1 (centres undefined) | inactive: 98%
CC(C)Oc1ccc(C(=O)NCC2(N(C)C)CCCCC2)cc1 | inactive: 103%
CN(C)c1cccc(C(=O)NCC2(N(C)C)CCCCC2)c1 | inactive: 105%
COc1ccc(Br)c(C(=O)NCC2(N3CCCCC3)CCCCC2)c1 | inactive: 113%
CN1[C@@H]2CC[C@H]1CC(OC(=O)C(O)(c1ccccc1)c1ccccc1)C2 (some centres undefined) | inactive: 104%
O=C(NCC1(N2CCCCC2)CCCCC1)c1cc([N+](=O)[O-])ccc1Cl | inactive: 77%
Cc1ccc(C(=O)NCC2(N3CCCCC3)CCCCC2)cc1 | inactive: 99%
CCN(CC)CC(C)C(C)OC(=O)C(O)(c1ccccc1)c1ccccc1 (centres undefined) | inactive: 103%
COc1cc(SC)ccc1C(=O)NCC1(N(C)C)CCCCC1 | inactive: 107%
CC(C)N1C(=O)CC2(CCN(CCOC(=O)C(O)(c3ccccc3)c3ccccc3)CC2)C1=O | inactive: 99%
Cc1ccccc1C(=O)NCC1(N2CCCCC2)CCCCC1 | inactive: 109%
CN(C)c1ccc(C(=O)NCC2(N(C)C)CCCCC2)cc1 | inactive: 104%
CN(C)C1CCCC1OC(=O)C(O)(c1ccccc1)c1ccccc1 (centres undefined) | inactive: 110%
COc1ccc(C(=O)NCC2(N(C)C)CCCCC2)cc1 | inactive: 105%
CCN1CCCC(OC(=O)C2(O)c3ccccc3C=Cc3ccccc32)C1 (centres undefined) | inactive: 102%
Cc1cc(C(=O)NCC2(N3CCCCC3)CCCCC2)ccc1[N+](=O)[O-] | inactive: 116%
O=C(NCC1(N2CCCCC2)CCCCC1)c1cccc(Br)c1 | inactive: 100%
C=CCN1CCN(CCOC(=O)C(O)(c2ccccc2)c2ccccc2)CC1 | inactive: 96%
O=C(NCC1(N2CCCCC2)CCCCC1)c1cc(F)c(F)cc1Cl | inactive: 99%
